Experimental data from patent US11298431B2, “Method for labeling radioisotope radiolabeling compound and kit comprising the same for labeling radioisotope” (KOREA ATOMIC ENERGY RESEARCH INSTITUTE, priority 2018, dated 2022).
Several values for one entry are separate records, joined by “and”; a condition that tells them apart may be missing. Identical values can stand only once.

Assay: In vivo biodistribution of 125I-labeled HSA in ICR male mice
Details: i.v.

“[^125I] 10: HSA directly radioiodinated through tyrosine ring using [^125I] NaI and chloramine-T, for comparison” gave a Blood radioactivity (0.5 h after injection) of 30.1 % ID/g, a Heart radioactivity (0.5 h after injection) of 5.9 % ID/g and a Kidney radioactivity (0.5 h after injection) of 6.1 % ID/g. It also gave a Large intestine radioactivity (0.5 h after injection) of 0.88 % ID/g, a Liver radioactivity (0.5 h after injection) of 5.1 % ID/g and a Lung radioactivity (0.5 h after injection) of 8.1 % ID/g. For the same substance, the Spleen radioactivity (0.5 h after injection) was 3.6 % ID/g, the Thyroid radioactivity (0.5 h after injection) was 2.1 % ID/g and the Blood radioactivity (3 h after injection) was 25.3 % ID/g. It also gave a Kidney radioactivity (3 h after injection) of 5.3 % ID/g, a Large intestine radioactivity (3 h after injection) of 0.95 % ID/g and a Liver radioactivity (3 h after injection) of 3.0 % ID/g. For the same substance, the Lung radioactivity (3 h after injection) was 7.7 % ID/g, the Stomach radioactivity (3 h after injection) was 1.8 % ID/g and the Thyroid radioactivity (3 h after injection) was 15.3 % ID/g. It also gave a Blood radioactivity (6 h after injection) of 14.5 % ID/g, a Heart radioactivity (6 h after injection) of 3.5 % ID/g and a Kidney radioactivity (6 h after injection) of 5.5 % ID/g. For the same substance, the Large intestine radioactivity (6 h after injection) was 1.1 % ID/g, the Liver radioactivity (6 h after injection) was 2.8 % ID/g and the Lung radioactivity (6 h after injection) was 7.1 % ID/g. The Small intestine radioactivity (6 h after injection) was 1.9 % ID/g, the Spleen radioactivity (6 h after injection) was 2.8 % ID/g and the Stomach radioactivity (6 h after injection) was 5.8 % ID/g. The Thyroid radioactivity (6 h after injection) was 75.3 % ID/g, the Blood radioactivity (24 h after injection) was 8.3 % ID/g and the Heart radioactivity (24 h after injection) was 2.8 % ID/g. The Kidney radioactivity (24 h after injection) was 4.2 % ID/g, the Large intestine radioactivity (24 h after injection) was 1.2 % ID/g and the Liver radioactivity (24 h after injection) was 1.9 % ID/g. For the same substance, the Lung radioactivity (24 h after injection) was 5.2 % ID/g, the Small intestine radioactivity (24 h after injection) was 1.7 % ID/g and the Thyroid radioactivity (24 h after injection) was 255.1±66.21 % ID/g and 255.1 % ID/g. For the same substance, the Blood radioactivity (36 h after injection) was 6.1 % ID/g, the Heart radioactivity (36 h after injection) was 2.1 % ID/g and the Kidney radioactivity (36 h after injection) was 3.8 % ID/g. The Large intestine radioactivity (36 h after injection) was 1.0 % ID/g, the Liver radioactivity (36 h after injection) was 1.8 % ID/g and the Lung radioactivity (36 h after injection) was 4.9 % ID/g. For the same substance, the Small intestine radioactivity (36 h after injection) was 1.5 % ID/g, the Spleen radioactivity (36 h after injection) was 1.5 % ID/g and the Stomach radioactivity (36 h after injection) was 14.2 % ID/g. For the same substance, the Thyroid radioactivity (36 h after injection) was 395.2±59.98 % ID/g and 395.2 % ID/g.
